Measured values reported in ChEMBL document CHEMBL1154618, “Agonist vs antagonist behavior of delta opioid peptides containing novel phenylalanine analogues in place of Tyr(1)” (J Med Chem, 2009).
Non-standard residues stand in square brackets, D forms with d. Residues, ends and D or L forms follow the SMILES beside them. Phe(2,6-Me2,4-CONH2) = Cc1cc(C(N)=O)cc(C)c1C[C@H](N)C(=O)O; Tic = O=C(O)[C@@H]1Cc2ccccc2CN1

Sequences of proteins named here, by UniProt entry; tags and fusion partners are left off.
UniProt P32300, whole entry: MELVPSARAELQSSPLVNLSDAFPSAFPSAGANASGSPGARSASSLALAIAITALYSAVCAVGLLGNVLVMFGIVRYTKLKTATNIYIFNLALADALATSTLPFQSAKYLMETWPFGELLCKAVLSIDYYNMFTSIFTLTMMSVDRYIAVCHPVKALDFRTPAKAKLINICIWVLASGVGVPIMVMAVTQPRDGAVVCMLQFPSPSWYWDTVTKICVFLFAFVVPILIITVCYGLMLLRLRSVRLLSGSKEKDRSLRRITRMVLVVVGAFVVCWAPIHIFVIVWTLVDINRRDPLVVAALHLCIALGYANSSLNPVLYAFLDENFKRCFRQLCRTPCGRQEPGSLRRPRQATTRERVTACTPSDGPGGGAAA
UniProt P33535, whole entry: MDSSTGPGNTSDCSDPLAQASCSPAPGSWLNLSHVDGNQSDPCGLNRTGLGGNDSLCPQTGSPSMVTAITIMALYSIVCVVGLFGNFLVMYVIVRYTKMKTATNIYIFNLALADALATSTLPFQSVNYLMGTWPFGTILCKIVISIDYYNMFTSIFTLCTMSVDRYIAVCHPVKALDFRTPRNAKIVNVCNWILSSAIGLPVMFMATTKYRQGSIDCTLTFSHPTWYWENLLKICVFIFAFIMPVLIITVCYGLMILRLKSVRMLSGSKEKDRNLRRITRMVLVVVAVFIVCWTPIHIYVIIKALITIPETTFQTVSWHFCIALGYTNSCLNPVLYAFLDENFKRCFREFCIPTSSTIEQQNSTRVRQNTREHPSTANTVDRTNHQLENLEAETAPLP

Assays:
[1] = biological target: Delta-type opioid receptor (Mus musculus) (UniProt P32300); assay: Antagonist activity at delta opioid receptor in mouse vas deferens assessed as inhibition of DPDPE-stimulated muscle contraction; format: functional, tissue-based
[2] = species on record: Rattus norvegicus; assay: Selectivity ratio of Ki for rat delta opioid receptor to rat mu opioid receptor
[3] = biological target: Mu-type opioid receptor (Rattus norvegicus, UniProt P33535); assay: Displacement of [3H]DAMGO from mu opioid receptor in rat brain membrane; format: cell membranes
[4] = Selectivity ratio of Ki for rat delta opioid receptor to guinea pig kappa opioid receptor

Compound | Ke [1] | Ratio Ki [2] | Ki [3] | Ratio Ki [4]
Cc1cc(C(=O)NCCc2ccc(-c3ccccc3)cc2)cc(C)c1C[C@H](N)C(=O)N1Cc2ccccc2C[C@H]1C(=O)N[C@@H](Cc1ccccc1)C(=O)N[C@@H](Cc1ccccc1)C(=O)O | 3.07 nM |  |  | 
Cc1cc(C(N)=O)cc(C)c1C[C@H](N)C(=O)N1Cc2ccccc2C[C@H]1C(=O)N[C@@H](Cc1ccccc1)C(=O)N[C@@H](Cc1ccccc1)C(=O)O (H-[Phe(2,6-Me2,4-CONH2)][Tic]FF-OH) |  | 4410 | 2210 nM | > 2000
